# Measured affinities in a library of Ab-14 light chain variants

Antigen: PDVDLGDISGINAS, a 14-residue peptide of the SARS-CoV-2 spike HR2 region.

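The starting antibody came from a phage panning campaign against this peptide. Designed CDR sequences, proposed from the first random library and measured here. Several design methods are mixed in this list. Affinity was read by AlphaSeq, a pooled yeast mating assay with surface-displayed partners. Pairs that bind mate more often; barcode pairs of the diploids are counted by sequencing. A regression on co-assayed BCL2-family reference pairs converts the normalised counts of each replicate to an apparent Kd. There are six technical replicates.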

The variants keep the heavy chain, the linker and the frameworks of Ab-14 (scFv order VH, the linker GGGGSGGGGSGGGGS, VL).
VH: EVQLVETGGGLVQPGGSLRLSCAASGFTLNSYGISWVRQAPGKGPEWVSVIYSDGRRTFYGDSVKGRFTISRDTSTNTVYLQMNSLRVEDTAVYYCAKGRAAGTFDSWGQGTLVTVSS
VL: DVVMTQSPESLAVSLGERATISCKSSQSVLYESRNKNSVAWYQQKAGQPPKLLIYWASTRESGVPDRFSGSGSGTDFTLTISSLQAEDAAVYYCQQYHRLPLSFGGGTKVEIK

Sequences are complete VL domains.
Variants here have more than six changes.
The Kd shown is the geometric mean over detected replicates; a lower Kd is a better binder.
An entry "no signal" has no value in the source: the pair was not observed among the diploids in any replicate. This suggests poor binding but is not conclusive.
In the paper, a design with two or fewer of six values counts as a poor binder.
The parent sequence was in this pool as ten entries: three were never detected, three once, and four in most replicates, with averages from 2.2 nM to 240 nM.
Values of this round are not directly comparable with the first-round values of the same sequences.
Background: pairings of all light chain designs with three empty control strains gave a value in 4% of cases (median 430 nM, 5th percentile 38 nM). Values in that range, when seen in few replicates, are hard to tell from nonspecific mating.

For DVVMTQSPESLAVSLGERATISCKLSQSDEYESRQKNSVAWYQQKAGQPPKLLIYNASTRMQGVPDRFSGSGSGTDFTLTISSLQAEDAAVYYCQQYHRLPLSFGGGTKVEIK, the assay gave 1.2 nM (6 of 6 replicates). For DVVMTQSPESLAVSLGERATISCAISFEMMSPHNHSNSVAWYQQKAGQPPKLLIYSESKRCSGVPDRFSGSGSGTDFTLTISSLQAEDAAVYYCQQYFTLPLSFGGGTKVEIK, the assay gave 13 nM (6 of 6 replicates). The variant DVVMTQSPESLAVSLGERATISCKISQATNYLSRVMNSVAWYQQKAGQPPKLLIYDNSTRGSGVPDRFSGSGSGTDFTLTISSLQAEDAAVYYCQQYFRLPLSFGGGTKVEIK showed 1.8 nM (6 of 6 replicates). The variant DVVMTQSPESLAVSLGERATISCHISMSMNYLSRNKNSIAWYQQKAGQPPKLLIYEESTRESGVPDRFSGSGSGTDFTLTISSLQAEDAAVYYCQQYARLPLSFGGGTKVEIK showed 940 pM (6 of 6 replicates). For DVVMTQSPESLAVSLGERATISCKLQQSVEYEARNQNSVAWYQQKAGQPPKLLIYSASYRLDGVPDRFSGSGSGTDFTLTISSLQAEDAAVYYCQQYHRLPLSFGGGTKVEIK, the assay gave 1.5 nM (6 of 6 replicates).

The variant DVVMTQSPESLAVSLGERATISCTLHGNIQYGGIMIKSIAWYQQKAGQPPKLLIYDNVQRANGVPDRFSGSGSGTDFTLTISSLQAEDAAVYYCQQYTRLPLSFGGGTKVEIK showed 2.1 nM (6 of 6 replicates). The variant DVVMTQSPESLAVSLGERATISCHLGGMMTWESKAKNSVAWYQQKAGQPPKLLIYQSNTRAEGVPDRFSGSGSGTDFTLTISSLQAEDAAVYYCQQYHRLPLSFGGGTKVEIK showed 910 pM (6 of 6 replicates). The variant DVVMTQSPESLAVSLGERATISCNLSDGEMYENATRSAVAWYQQKAGQPPKLLIYNTSMRDFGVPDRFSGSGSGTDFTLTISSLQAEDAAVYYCQQYNRLPLDFGGGTKVEIK showed 730 nM (4 of 6 replicates). For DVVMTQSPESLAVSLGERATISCKLSVSWLFESIEKNSVAWYQQKAGQPPKLLIYERSTREDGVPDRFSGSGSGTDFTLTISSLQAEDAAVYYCQDYNRLPLSFGGGTKVEIK, the assay gave 25 nM (6 of 6 replicates). For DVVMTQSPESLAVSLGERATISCKLSLFSLHGDLPWSAVAWYQQKAGQPPKLLIYNEVVRLAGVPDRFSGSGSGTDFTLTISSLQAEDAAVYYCQQYFRLPIHFGGGTKVEIK, the assay gave 19 nM (6 of 6 replicates).

The variant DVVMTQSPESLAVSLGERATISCMVTQMAMSGMTNKRSVAWYQQKAGQPPKLLIYNAEMREHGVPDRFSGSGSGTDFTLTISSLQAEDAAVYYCQQYHRLPLIFGGGTKVEIK gave 4.0 nM (6 of 6 replicates). The variant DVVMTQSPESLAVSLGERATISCMLSQMWALGMKAKNSVAWYQQKAGQPPKLLIYQASMRFEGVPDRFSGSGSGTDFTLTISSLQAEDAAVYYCQQYERLPLIFGGGTKVEIK gave no signal (0 of 6 replicates). The variant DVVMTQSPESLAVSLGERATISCKIERSTKGDRYFQYSIAWYQQKAGQPPKLLIYQGDIREKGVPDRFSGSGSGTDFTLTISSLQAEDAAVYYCQQYGQLPLTFGGGTKVEIK gave 27 nM (2 of 6 replicates). For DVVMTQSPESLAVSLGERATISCKLGSMVLLEYGAKNSIAWYQQKAGQPPKLLIYQQSTREEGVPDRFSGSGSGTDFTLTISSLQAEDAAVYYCQQYDRLPLSFGGGTKVEIK, the assay gave 32 nM (6 of 6 replicates). For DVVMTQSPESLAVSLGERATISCVFSGQWDLNTTENSAVAWYQQKAGQPPKLLIYNVDERMLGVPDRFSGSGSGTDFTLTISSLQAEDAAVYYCQQYNRLPLMFGGGTKVEIK, the assay gave 21 nM (5 of 6 replicates).

The variant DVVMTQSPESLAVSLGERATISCKLYYSSVGEVNGSHSIAWYQQKAGQPPKLLIYETDQLTFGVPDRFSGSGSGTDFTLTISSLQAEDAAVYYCQQYSHLPLSFGGGTKVEIK gave 130 nM (6 of 6 replicates). The variant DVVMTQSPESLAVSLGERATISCHISPSFMVESRLKNSVAWYQQKAGQPPKLLIYQTETRESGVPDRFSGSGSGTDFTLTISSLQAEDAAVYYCQQYDRLPLSFGGGTKVEIK gave 4.4 nM (6 of 6 replicates). The variant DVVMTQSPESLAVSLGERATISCMISQLMNMGQFAINSVAWYQQKAGQPPKLLIYQATIRNDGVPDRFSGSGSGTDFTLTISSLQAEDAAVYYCQQYDRLPLIFGGGTKVEIK gave 160 nM (5 of 6 replicates). With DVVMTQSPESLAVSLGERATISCKFGQSVLMGSYVRNSVAWYQQKAGQPPKLLIYQSETRENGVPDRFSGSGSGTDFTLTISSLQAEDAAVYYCQQYDRLPLSFGGGTKVEIK the result was 6.1 nM (6 of 6 replicates). With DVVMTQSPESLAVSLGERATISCQLDHQLQYDDANKKAVAWYQQKAGQPPKLLIYEMTEVTTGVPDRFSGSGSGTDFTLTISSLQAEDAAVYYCQQYHRLPLVFGGGTKVEIK the result was 60 nM (6 of 6 replicates).

The variant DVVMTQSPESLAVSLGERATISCLISGVWDYGSRNYNSVAWYQQKAGQPPKLLIYQQSTRESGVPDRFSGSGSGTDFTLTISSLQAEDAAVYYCQQYDRLPLSFGGGTKVEIK showed no signal (0 of 6 replicates). With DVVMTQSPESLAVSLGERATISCMISHVMNTLTRNGNNVAWYQQKAGQPPKLLIYDLAEREKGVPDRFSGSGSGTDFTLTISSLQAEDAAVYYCQQYFRLPLSFGGGTKVEIK the result was 17 nM (6 of 6 replicates).

The 3 strongest on average among those seen in every replicate, once more:

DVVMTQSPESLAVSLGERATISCHLGGMMTWESKAKNSVAWYQQKAGQPPKLLIYQSNTRAEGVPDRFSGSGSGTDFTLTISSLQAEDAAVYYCQQYHRLPLSFGGGTKVEIK: 910 pM (6 of 6 replicates).
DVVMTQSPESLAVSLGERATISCHISMSMNYLSRNKNSIAWYQQKAGQPPKLLIYEESTRESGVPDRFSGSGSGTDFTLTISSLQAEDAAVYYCQQYARLPLSFGGGTKVEIK: 940 pM (6 of 6 replicates).
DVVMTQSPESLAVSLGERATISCKLSQSDEYESRQKNSVAWYQQKAGQPPKLLIYNASTRMQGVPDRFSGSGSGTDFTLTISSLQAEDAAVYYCQQYHRLPLSFGGGTKVEIK: 1.2 nM (6 of 6 replicates).

From the AlphaSeq antibody data of Li et al. 2023 (doi:10.1038/s41467-023-39022-2), copy in the FLAb collection.